In patent publication US20020151553A1, “Chemokine receptor antagonists and methods of use therefor” (Millennium Pharmaceuticals, Inc., priority 1996, published 2002) one finds IC50 data, which are given here for two compounds.

Chains of the proteins cited; added tags and fusions are not shown.
UniProt P32246, whole entry: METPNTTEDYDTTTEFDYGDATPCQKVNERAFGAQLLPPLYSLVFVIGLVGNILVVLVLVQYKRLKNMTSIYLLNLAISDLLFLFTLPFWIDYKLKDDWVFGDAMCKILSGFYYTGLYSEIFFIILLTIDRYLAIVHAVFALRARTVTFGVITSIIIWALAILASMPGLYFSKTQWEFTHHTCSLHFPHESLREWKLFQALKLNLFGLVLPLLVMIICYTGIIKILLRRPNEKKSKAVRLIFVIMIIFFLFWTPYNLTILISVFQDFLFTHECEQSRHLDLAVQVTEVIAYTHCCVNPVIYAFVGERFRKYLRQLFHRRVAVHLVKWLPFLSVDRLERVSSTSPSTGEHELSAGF

For this experiment, the target named is chemokine receptor (RANTES / MIP-1α binding) on THP-1 cell membranes (Homo sapiens, UniProt P32246). In words: Receptor binding assay with 125I-RANTES or 125I-MIP-1α as ligand and THP-1 cell membranes. The settings on record: read-out: IC50 (inhibitor concentration required for 50% inhibition of specific binding), 60 min at room temperature. As to the method: Membranes were prepared from THP-1 cells (ATCC #TIB202). Cells were harvested by centrifugation, washed twice with PBS (phosphate-buffered saline), and the cell pellets were frozen at −70 to −85° C. […] This procedure results in cell lysis. The suspension was mixed well to resuspend all of the frozen cell pellet. Nuclei and cell debris were removed by centrifugation of 400× g for 10 minutes at 4° C. The supernatant was transferred to a fresh tube and the membrane fragments were collected by centrifugation at 25,000× g for 30 minutes at 4° C. The supernatant was aspirated and the pellet was resuspended in freezing buffer consisting of 10 mM HEPES pH 7.5, 300 mM sucrose, 1 μg/ml each aprotinin, leupeptin, and chymostatin, and 10 μg/ml PMSF approximately 0.1 ml per each 10^8 cells). All clumps were resolved using a minihomogenizer, and the total protein concentration was determined using a protein assay kit (Bio-Rad, Hercules, Calif., cat #500-0002). The membrane solution was then aliquoted and frozen at −70 to −85° C. until needed. Binding Assays utilized the membranes described above.

Take `Cc1cccc(C2(O)CCN(CCCC3(C#N)c4ccccc4CSc4ccccc43)CC2)c1` (centres unmarked): the IC50 was 480 nM.

With `N#CC1(CCCN2CCC(O)(c3ccc(F)cc3)CC2)c2ccccc2CSc2ccccc21` (centres unmarked), the IC50 was determined as 130 nM.
